Results from patent US20050095674A1, “Cannabinoid receptor interacting proteins and methods of use” (priority 2003, published 2005).

By UniProt entry, the sequences of proteins in these tests, tags left out. Residues count along the entry.
UniProt P20272, 1-464 limits assumed: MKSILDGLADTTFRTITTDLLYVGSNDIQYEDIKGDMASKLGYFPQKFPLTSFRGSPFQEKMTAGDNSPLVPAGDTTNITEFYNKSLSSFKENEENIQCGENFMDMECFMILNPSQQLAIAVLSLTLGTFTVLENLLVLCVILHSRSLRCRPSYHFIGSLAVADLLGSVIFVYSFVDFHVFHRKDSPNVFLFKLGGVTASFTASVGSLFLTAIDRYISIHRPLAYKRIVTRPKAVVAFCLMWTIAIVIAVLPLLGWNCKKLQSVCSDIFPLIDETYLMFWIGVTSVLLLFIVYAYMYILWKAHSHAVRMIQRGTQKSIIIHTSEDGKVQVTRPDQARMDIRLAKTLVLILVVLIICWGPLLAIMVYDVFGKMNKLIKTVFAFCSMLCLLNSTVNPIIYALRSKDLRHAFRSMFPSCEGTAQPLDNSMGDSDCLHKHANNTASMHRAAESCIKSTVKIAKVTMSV
UniProt P20272, whole entry: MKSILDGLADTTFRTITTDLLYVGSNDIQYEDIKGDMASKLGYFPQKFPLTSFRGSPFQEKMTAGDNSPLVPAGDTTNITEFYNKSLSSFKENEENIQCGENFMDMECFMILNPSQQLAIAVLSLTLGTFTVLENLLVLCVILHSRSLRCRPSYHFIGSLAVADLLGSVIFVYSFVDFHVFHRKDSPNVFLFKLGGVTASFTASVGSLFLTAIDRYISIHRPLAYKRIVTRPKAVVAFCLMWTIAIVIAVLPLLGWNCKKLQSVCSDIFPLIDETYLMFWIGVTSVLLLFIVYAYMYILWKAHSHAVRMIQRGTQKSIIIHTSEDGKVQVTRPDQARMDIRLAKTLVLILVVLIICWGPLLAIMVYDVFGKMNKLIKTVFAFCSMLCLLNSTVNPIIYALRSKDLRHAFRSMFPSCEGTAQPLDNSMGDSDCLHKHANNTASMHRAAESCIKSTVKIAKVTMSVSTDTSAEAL

Legend:
[1] = molecular target: T1, CB1-464 truncated receptor (Rattus norvegicus, UniProt P20272); experiment: Whole-cell patch clamp of Ca2+ currents in SCG neurons expressing the CB1-464 truncated receptor; type: cell-based
T1 construct: expressed in transfected cells

CB1 receptors = CB1 receptors (Rattus norvegicus, UniProt P20272); details: SCG neurons expressing CB1 receptors (Pan et al., 1998); cited from earlier work

Cc1c(C(=O)NN2CCCCC2)nn(-c2ccc(Cl)cc2Cl)c1-c1ccc(Cl)cc1 [SR141716]
SR141716 induced Ca2+ current increase, truncated receptor compared to wild type receptor [1]: not significantly altered
effect on voltage-gated Ca2+ current (CB1 receptors): increases the voltage-gated Ca^2+ current
